Among the data in PMC4602232, “Structural basis for recognition of Emi2 by Polo-like kinase 1 and development of peptidomimetics blocking oocyte maturation and fertilization” (Scientific Reports, 2015) are Kd values, retold here.

By UniProt entry, the sequences of proteins in these tests, tags left out. Residues count along the entry.
UniProt Q07832, 367-603: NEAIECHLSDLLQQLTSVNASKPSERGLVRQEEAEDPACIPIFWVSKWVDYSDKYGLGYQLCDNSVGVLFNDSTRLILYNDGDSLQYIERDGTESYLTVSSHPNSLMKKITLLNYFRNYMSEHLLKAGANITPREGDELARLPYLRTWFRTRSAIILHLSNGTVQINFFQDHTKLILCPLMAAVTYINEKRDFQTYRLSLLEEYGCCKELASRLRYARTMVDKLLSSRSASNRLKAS

This assay addresses T1, Mouse Plk1 Polo box domain (Plk1-PBD, amino acid residues 367-603) (mouse, UniProt Q07832 367-603).
T1 construct: Polo-like kinase 1 (Plk1), mouse, polo box domain, residues 367-603; TEV site ENLYFQ/S between the His6 tag and the PBD; cleavage between Q and S should leave a Ser before residue 367 (surmised); also called polo box domain of Polo-like kinase 1; source: E. coli BL21 (DE3), purified (Ni-NTA, TEV digestion, Superdex 75 gel filtration); not shown: His6, N-terminal, cleaved
Kind of assay: ITC; phosphorylated peptide (1.2 mM) injected into Plk1-PBD (0.1 mM) in the cell; 15 °C; 20 mM Tris-Cl pH 8.0, 300 mM NaCl, 3 mM DTT; one-site binding model. The conditions noted are these: both partners purified.

B1: Phosphorylated Emi2 146-177 peptide (phospho-Thr152 and phospho-Thr176) (peptide, UniProt Q8CDI2 146-177, looked up)
peptide: SPLVTSTIKTEDVVSNSQNSRLHFSQHKTSTI
modifications: phosphothreonine at 152; phosphothreonine at 176
notes: Made on Rink amide resin, so probably a C-terminal amide (surmised); source: synthetic peptide (Fmoc SPPS, Rink amide resin, RP-HPLC)
As for B1, binding was characterised by a dissociation constant (Kd) of 1730 nM. This lies in the single-digit micromolar range.
